{
  "source": "patent US12329851B2",
  "about": "“Long acting injectable formulation comprising risperidone and biodegradable polymers” (MedinCell S.A., priority 2021, dated 2025)",
  "experiment": "Population pharmacokinetics (PopPK) modeling",
  "set-up": "species or system human",
  "details": "after sc Risperidone formulation",
  "data": [
    {"smiles": "Cc1nc2n(c(=O)c1CCN1CCC(c3noc4cc(F)ccc34)CC1)CCCC2", "note": "[risperidone]", "values": [
      {"measurement": "final PopPK model estimate for clearance (CL)", "value": 14.3, "unit": "L/h"}
    ]}
  ]
}
